# Results as given in US20090209633A1, “Treatment of Pain With Resiniferatoxin and Related Analogs” (priority 2006, published 2009).
# Protein sequences, listed by entry. Tags and fused reporters are not part of them.
# UniProt O35433, whole entry: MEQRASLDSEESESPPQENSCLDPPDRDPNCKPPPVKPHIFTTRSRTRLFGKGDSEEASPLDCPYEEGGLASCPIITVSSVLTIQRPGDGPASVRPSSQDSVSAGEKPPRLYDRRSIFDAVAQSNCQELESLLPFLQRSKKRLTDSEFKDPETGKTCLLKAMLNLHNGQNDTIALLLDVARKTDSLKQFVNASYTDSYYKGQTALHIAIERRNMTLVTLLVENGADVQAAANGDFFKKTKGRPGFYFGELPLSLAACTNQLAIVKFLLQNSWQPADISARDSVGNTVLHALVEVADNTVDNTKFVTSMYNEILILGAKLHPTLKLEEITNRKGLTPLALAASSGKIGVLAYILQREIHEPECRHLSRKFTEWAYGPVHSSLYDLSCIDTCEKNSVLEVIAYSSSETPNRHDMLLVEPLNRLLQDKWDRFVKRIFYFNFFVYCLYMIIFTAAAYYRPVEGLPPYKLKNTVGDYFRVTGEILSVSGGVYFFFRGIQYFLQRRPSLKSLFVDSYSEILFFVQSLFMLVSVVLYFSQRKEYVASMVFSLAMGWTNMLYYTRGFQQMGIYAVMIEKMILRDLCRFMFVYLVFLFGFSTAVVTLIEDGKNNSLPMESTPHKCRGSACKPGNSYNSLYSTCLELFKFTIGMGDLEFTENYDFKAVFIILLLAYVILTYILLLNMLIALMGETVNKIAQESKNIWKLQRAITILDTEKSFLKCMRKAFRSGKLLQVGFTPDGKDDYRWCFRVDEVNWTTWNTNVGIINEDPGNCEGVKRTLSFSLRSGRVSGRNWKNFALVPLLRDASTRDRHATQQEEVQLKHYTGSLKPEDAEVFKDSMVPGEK
# Molecular target: T1, native TRPV1 (Rattus norvegicus, UniProt O35433)
# T1 construct: RTX-induced membrane currents on native TRPV1 in embryonic DRG neurons grown in culture; endogenous in cells; host or cells: primary rat E18 DRG neurons
# Experiment: Single-channel currents in cell-attached patches from DRG neurons
# Assay type: cell-based
# Conditions: between 0 and +100 mV
# From the text: For single-channel recording in cell-attached patches from DRG neurons, the bath solution contained (mM): potassium gluconate 140, KCl 2.5, MgCl2 1, Hepes 5 and EGTA 1.5; pH adjusted to 7.35 with NaOH. The patch pipettes were made from glass capillaries (Drummond, Microcaps), coated with Sylgard (Dow Corning, Midland, Mich., USA). For cell-attached patches, the patch pipettes were filled with a solution that contained (mM): sodium gluconate 140, NaCl 10, MgCl2 1, Hepes 5 and EGTA 1.5; pH adjusted to 7.35 with NaOH. […] The currents were recorded using a WPC 100 (Warner Instruments) or Axopatch 2B (Axon Instruments, Union City, Calif., USA) patch-clamp amplifier. […]
# Single-channel analysis. […] For current-voltage relationships, the amplitudes were determined by fitting a Gaussian curve to an all-point histogram. Po was determined using unedited segments of data, which were typically 1-5 min long. For multiple channel patches, the mean Po was measured as nPo, where n is the number of channels in the patch. Chord conductance was measured at +60 or −60 mV. […]
# Single-channel conductance. To further evaluate the properties of TRPV1 activation by RTX, we recorded single-channel currents from cell-attached and excised patches from DRG neurons and oocytes heterologously expressing TRPV1. […]
structure (smiles),measurement,value
COc1cc(CNC(=O)CCCC/C=C/C(C)C)ccc1O [capsaicin],"slope conductance, outward limb / positive potentials",107 pS
